The text below walks through data of PubChem BioAssay AID624417 (National Center for Advancing Translational Sciences (NCATS), 2012).

Protein sequences, listed by entry. Tags and fused reporters are not part of them.
UniProt P43220, whole entry: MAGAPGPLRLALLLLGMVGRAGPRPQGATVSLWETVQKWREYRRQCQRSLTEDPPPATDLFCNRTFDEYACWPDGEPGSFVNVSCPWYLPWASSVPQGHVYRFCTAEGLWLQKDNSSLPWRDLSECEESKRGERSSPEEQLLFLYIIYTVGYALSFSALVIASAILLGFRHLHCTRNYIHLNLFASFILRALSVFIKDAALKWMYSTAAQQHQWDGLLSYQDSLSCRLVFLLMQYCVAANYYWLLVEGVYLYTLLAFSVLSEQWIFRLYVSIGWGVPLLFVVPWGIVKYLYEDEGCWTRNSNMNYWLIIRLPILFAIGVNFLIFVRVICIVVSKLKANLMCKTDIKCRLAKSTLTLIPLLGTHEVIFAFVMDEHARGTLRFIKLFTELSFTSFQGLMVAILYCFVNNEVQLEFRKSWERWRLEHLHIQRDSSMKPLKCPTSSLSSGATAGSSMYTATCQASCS

Values joined by “and” are separate entries in the source; they are usually repeats but may differ in a detail not shown here. Equal entries are not always repeated. Only a part is listed here, and it is no random draw. Some tests of the compounds listed are not included; inactive here does not mean inactive elsewhere. Records with an inconclusive call do not appear. Active and inactive are the calls of the source. Calls come from the whole dose curve; as a rule, active = well fitted inhibition curve with a large enough effect; inconclusive = small, poorly fitted or top-dose-only effect; inactive = no such curve, though single readings can be large or run the other way.
% is set by controls: 0 for no effect and ±100 for the full control effect.

This assay addresses Glucagon-like peptide 1 receptor (Homo sapiens) (UniProt P43220). The experiment in a line: qHTS of GLP-1 Receptor Inverse Agonists (Inhibition Mode). Note: nearly all actives have a fitted effect of over 55% in size. The following applies: HEK293 GLP-1R CRE-luciferase, luminescence, 24 h, GLP-1R form is constitutively active; at 38.3 µM (top of the series). Background: Quantitative high-throughput screening tests each substance at several concentrations.
Regarding `COc1cc(C(=O)NCC2(N(C)C)CCCCC2)c([N+](=O)[O-])cc1OC`, the activity change, negative = inhibition is inactive: -1.35%. The figure for `CN(C)C1(CNC(=O)c2ccc(Br)cc2)CCCCC1` is inactive: -37.5%; for `O=C(NCC1(N2CCCCC2)CCCCC1)c1cccc(Cl)c1` it is inactive: -6.09%. `COc1ccc(C(=O)NCC2(N(C)C)CCCCC2)cc1Cl`: the activity change, negative = inhibition is inactive: -21%. On to `COc1ccc(Cl)cc1C(=O)NCC1(N(C)C)CCCCC1`, for which the activity change, negative = inhibition was inactive: -19.9%. With `COc1cccc(C(=O)NCC2(N3CCCCC3)CCCCC2)c1`, the activity change, negative = inhibition was inactive: 12.6%. As to `COc1cccc(C(=O)NCC2(N3CCOCC3)CCCCC2)c1`, the activity change, negative = inhibition is inactive: 15.2%. With `CN(C)c1cccc(C(=O)NCC2(N(C)C)CCCCC2)c1`, the activity change, negative = inhibition is inactive: 0.49%. The figure for `O=C(OCCN1CCCC1)C(O)(c1ccccc1)c1ccccc1` is inactive: 4.1%. For the compound `CC(C)Oc1ccc(C(=O)NCC2(N(C)C)CCCCC2)cc1`, the activity change, negative = inhibition is inactive: -4.02% and inactive: -7.11%. For `COc1ccc(Br)c(C(=O)NCC2(N3CCCCC3)CCCCC2)c1`, the activity change, negative = inhibition was inactive: -20.1%. In the case of `Cc1cccc(C(=O)NCC2(N(C)C)CCCCC2)c1`, the activity change, negative = inhibition was inactive: -18%. Turning to `COc1cc(C(=O)NCC2(N(C)C)CCCCC2)cc(OC)c1OC`, the activity change, negative = inhibition was inactive: 9.15%.

On to `C=C(C)C#CC(O)(C(=O)OC1CCN(C)CC1)c1ccccc1` (stereo unspecified), for which the activity change, negative = inhibition was inactive: 9.81%. Consider `CN1[C@@H]2CC[C@H]1CC(OC(=O)C(O)(c1ccccc1)c1ccccc1)C2` (stereo partly specified), for which the activity change, negative = inhibition was inactive: -28.4%. As to `O=C(NCC1(N2CCCCC2)CCCCC1)c1cc([N+](=O)[O-])ccc1Cl`, the activity change, negative = inhibition was inactive: -24.5%. To `CN(C)C1(CNC(=O)c2ccccc2F)CCCCC1` belongs inactive: 3.72%; to `Cc1ccc(C(=O)NCC2(N3CCCCC3)CCCCC2)cc1`, inactive: -1.26%. For the compound `CC(C)N1C(=O)CC2(CCN(CCOC(=O)C(O)(c3ccccc3)c3ccccc3)CC2)C1=O`, the activity change, negative = inhibition was inactive: -6.6%.

In the case of `COc1cc(SC)ccc1C(=O)NCC1(N(C)C)CCCCC1`, the activity change, negative = inhibition is inactive: 2.92%. Regarding `CCCCOc1ccccc1C(=O)NCC1(N(C)C)CCCCC1`, the activity change, negative = inhibition was inactive: -18.8%. As to `CN(C)c1ccc(C(=O)NCC2(N(C)C)CCCCC2)cc1`, the activity change, negative = inhibition is inactive: -20.5%.

As for `CN(C)C1CCCC1OC(=O)C(O)(c1ccccc1)c1ccccc1` (stereo unspecified), the activity change, negative = inhibition is inactive: -9.3%. Regarding `Cc1ccccc1C(=O)NCC1(N2CCCCC2)CCCCC1`, the activity change, negative = inhibition is inactive: 7.95%. With `CN(C)C1(CNC(=O)c2ccccc2[N+](=O)[O-])CCCCC1`, the activity change, negative = inhibition was inactive: -6.37%. For the compound `O=C(NCC1(N2CCCCC2)CCCCC1)c1cccc(Br)c1`, the activity change, negative = inhibition is inactive: 10.5%. As to `Cc1cc(C(=O)NCC2(N3CCCCC3)CCCCC2)ccc1[N+](=O)[O-]`, the activity change, negative = inhibition is inactive: 12.8%. To `CCOc1cccc(C(=O)NCC2(N(C)C)CCCCC2)c1` belongs inactive: -12.5%. For the compound `COc1ccc(C(=O)NCC2(N(C)C)CCCCC2)cc1`, the activity change, negative = inhibition was inactive: 4.38%. Regarding `O=C(NCC1(N2CCCCC2)CCCCC1)c1cc(F)c(F)cc1Cl`, the activity change, negative = inhibition is inactive: 3.4%. Regarding `C=CCN1CCN(CCOC(=O)C(O)(c2ccccc2)c2ccccc2)CC1`, the activity change, negative = inhibition was inactive: 0.905%.
